US6329137A (priority 2000, dated 2001)
pIC50: −log10 of the molar value.

Protein sequences, listed by entry. Tags and fused reporters are not part of them. Lines headed by an entry give the natural chain unless they say otherwise; changes in a name come on top.
UniProt P18031: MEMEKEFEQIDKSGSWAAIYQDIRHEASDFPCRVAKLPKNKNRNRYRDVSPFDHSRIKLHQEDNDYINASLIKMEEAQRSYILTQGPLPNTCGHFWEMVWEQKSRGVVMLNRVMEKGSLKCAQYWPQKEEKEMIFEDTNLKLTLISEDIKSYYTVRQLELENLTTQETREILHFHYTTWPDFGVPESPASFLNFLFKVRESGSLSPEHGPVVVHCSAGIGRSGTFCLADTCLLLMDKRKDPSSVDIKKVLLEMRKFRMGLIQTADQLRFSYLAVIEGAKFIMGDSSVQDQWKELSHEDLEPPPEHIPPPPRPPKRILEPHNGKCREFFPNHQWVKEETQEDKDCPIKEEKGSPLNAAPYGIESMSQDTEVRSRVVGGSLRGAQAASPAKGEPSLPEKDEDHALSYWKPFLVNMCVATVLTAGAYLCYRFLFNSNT

What was measured:
PTP1B-FL = PTP1B-FL (Homo sapiens, UniProt P18031); conditions: PTP1B expressed within sf9 cells
[1] = system: PTPs (PTP1B-FL, CD45-cat and CD45-FL); assay: Intact sf9 cell assay, expressed PTPs taken together, pNPP hydrolysis; format: cell-based; conditions: intact sf9 cells, 10 mM pNPP
CD45 = CD45 expressed within sf9 cells

Q: How did the “inhibition of PTP1B in words” value (PTP1B-FL) turn out when `O=[As]c1ccccc1` (stereo not shown) was run?
A: Its value is “non-potent, non-selective inhibitor”.

Q: And the “potency and selectivity in words” value [1]?
A: Its value is “limited potency and selectivity”.

Q: And the pIC50 ([1]; read-out: IC50 values in the range of, individual PTPs not specified, 15 min preincubation)?
A: The pIC50 was 4.80 to 5.15.

Q: And the “inhibition of CD45 in words” value (CD45)?
A: The value was “non-potent, non-selective inhibitor”.
